Reference: paper PMC7759869 (Biomedicines, 2020)
Marks after values point to notes of the source that are not given here.

Amino acid sequences for entries named in this document (tags omitted).
UniProt P08684, whole entry: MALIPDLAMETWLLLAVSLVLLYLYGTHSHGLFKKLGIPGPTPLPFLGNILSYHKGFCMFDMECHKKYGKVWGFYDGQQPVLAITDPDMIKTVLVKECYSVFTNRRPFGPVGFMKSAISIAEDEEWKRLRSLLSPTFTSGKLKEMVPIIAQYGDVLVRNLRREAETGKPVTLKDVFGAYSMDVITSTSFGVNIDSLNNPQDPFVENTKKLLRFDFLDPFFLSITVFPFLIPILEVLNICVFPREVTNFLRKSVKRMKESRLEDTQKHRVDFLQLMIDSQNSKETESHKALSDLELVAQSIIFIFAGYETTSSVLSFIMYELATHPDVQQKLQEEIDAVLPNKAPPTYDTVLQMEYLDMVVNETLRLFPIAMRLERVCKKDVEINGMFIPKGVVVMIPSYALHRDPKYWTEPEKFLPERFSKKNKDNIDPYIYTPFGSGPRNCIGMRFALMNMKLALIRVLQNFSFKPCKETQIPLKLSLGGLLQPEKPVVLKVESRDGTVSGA

Assays:
Format in all cases: in vitro ADME
CYPs in human liver = experiment: Contributions of CYP enzymes to formation of cabozantinib metabolites in human livers; details: calculated from velocities with cyt b5 and CYP expression levels in human liver
CYP3A4 + cyt b5 = biological target: T1, CYP3A4 + cyt b5 (Homo sapiens, UniProt P08684); experiment: Cabozantinib oxidation by recombinant CYP3A4 in the presence of cyt b5 (Supersomes); details: formation of the metabolite from cabozantinib by CYP3A4 + cyt b5
T1 construct: purchased Corning (Corning, NY, USA); host or cells: insect cells (baculovirus)
From the text: (§1) Cabozantinib was from MedChemExpress (Monmouth Junction, NJ, USA). Standard of cabozantinib N-oxide was purchased from Toronto Research Chemicals (Toronto, Canada). Ketoconazole, NADPH and other chemicals were all purchased from Merck (Darnstadt, Germany). The purity of all chemicals met the standards of American Chemical Society, unless otherwise noted. Male human hepatic microsomes (pooled sample) (sample LOT: 3043885) were from Gentest Corp. (Woburn, MA, USA). Microsomes from livers of twelve human donors were obtained from Gentest Corp. (Woburn, MA, USA) (Lot. no. HG43-1, HG103, HG74, HG93, HG24, HG27, HG23, HG32, HK31, HK34, HG03 and HG42). Each human microsomal sample was characterized for CYP, FMO, total protein contents and specific CYP activities by Gentest Corp. and reanalyzed by us by assays described in the protocols of Gentest Corp. Our data were similar to those reported by Gentest Corp. (Table 1). Human recombinant enzymes were used in the forms of Supersomes™ and obtained from Corning (Corning, NY, USA). In Supersomes™, microsomal fractions were isolated from insect cells that were transfected with baculovirus constructs containing cDNA of human CYP enzymes (CYP1A1/2, 1B1, 2A6, 2B6, 2C8/9/18/19/, 2D6, 2E1, 3A4). The Supersomes™ also express NADPH:CYP oxidoreductase (POR). […]

CYP3A4 = CYP3A4 (Homo sapiens, UniProt P08684); experiment: Kinetics of cabozantinib oxidation by recombinant CYP3A4 (Supersomes); set-up: purchased Corning (Corning, NY, USA); host or cells: insect cells (baculovirus); details: formation of the metabolite from cabozantinib by CYP3A4 without cyt b5
From the text: as §1, with “(POR). However, because they are microsomes (particles of broken endoplasmic reticulum), other enzymes (proteins) of the endoplasmic reticulum membrane (like NADH:cytochrome b5 reductase and cytochrome b5) are also expressed at basal levels in these Supersomes™. We also utilized Supersomes™, which overexpressed cytochrome b5, in a molar ratio of CYP to cytochrome b5 of 1 to 5. In Supersomes™, where cytochrome b5 was not overexpressed (see above), pure cytochrome b5 was added to reach a molar ratio of CYP to cytochrome b5 of 1 to 5. Reconstitution of Supersomes™ with purified cytochrome b5 was performed as described previously. Human recombinant FMOs and AO were also used in the forms of Supersomes™ (Gentest Corp., Woburn, MA, USA).” for “(POR).”

human liver microsomes [1] = experiment: Oxidation of cabozantinib by hepatic microsomes of individual human donors (HPLC of metabolites); details: 50 µM cabozantinib, 20 min
From the text: Cabozantinib was from MedChemExpress (Monmouth Junction, NJ, USA). Standard of cabozantinib N-oxide was purchased from Toronto Research Chemicals (Toronto, Canada). Ketoconazole, NADPH and other chemicals were all purchased from Merck (Darnstadt, Germany). The purity of all chemicals met the standards of American Chemical Society, unless otherwise noted. Male human hepatic microsomes (pooled sample) (sample LOT: 3043885) were from Gentest Corp. (Woburn, MA, USA). Microsomes from livers of twelve human donors were obtained from Gentest Corp. (Woburn, MA, USA) (Lot. no. HG43-1, HG103, HG74, HG93, HG24, HG27, HG23, HG32, HK31, HK34, HG03 and HG42). Each human microsomal sample was characterized for CYP, FMO, total protein contents and specific CYP activities by Gentest Corp. and reanalyzed by us by assays described in the protocols of Gentest Corp. Our data were similar to those reported by Gentest Corp. (Table 1). Human recombinant enzymes were used in the forms of Supersomes™ and obtained from Corning (Corning, NY, USA). In Supersomes™, microsomal fractions were isolated from insect cells that were transfected with baculovirus constructs containing cDNA of human CYP enzymes (CYP1A1/2, 1B1, 2A6, 2B6, 2C8/9/18/19/, 2D6, 2E1, 3A4). The Supersomes™ also express NADPH:CYP oxidoreductase (POR). However, because they are microsomes (particles of broken endoplasmic reticulum), other enzymes (proteins) of the endoplasmic reticulum membrane (like NADH:cytochrome b5 reductase and cytochrome b5) are also expressed at basal levels in these Supersomes™. We also utilized Supersomes™, which overexpressed cytochrome b5, in a molar ratio of CYP to cytochrome b5 of 1 to 5. In Supersomes™, where cytochrome b5 was not overexpressed (see above), pure cytochrome b5 was added to reach a molar ratio of CYP to cytochrome b5 of 1 to 5. Reconstitution of Supersomes™ with purified cytochrome b5 was performed as described previously. Human recombinant FMOs and AO were also used in the forms of Supersomes™ (Gentest Corp., Woburn, MA, USA). These microsomal fractions were isolated from insect cells that are transfected with baculovirus constructs containing cDNA of human FMO1, FMO3, FMO5 or AO enzymes.
The reaction was initiated by adding NADPH. In control incubations, either microsomes or CYP (FMO, AO) or NADPH were omitted. […] The reaction was stopped by extraction with ethyl acetate (2 × 1 mL). […] Cabozantinib metabolites separated by HPLC were characterized by mass spectroscopy (see further details below).

human liver microsomes [2] = experiment: as above; details: 50 µM cabozantinib, 20 min; remark: listed apart in the source
human liver microsomes [3] = experiment: Correlation of CYP- and FMO-linked catalytic activities with amounts of cabozantinib metabolites formed in microsomes; details: twelve human microsomal samples
Method: Data are expressed as mean ± SD. Data were analyzed using GraphPad Prism 7 (San Diego, CA, USA) using ANOVA with post-hoc Tukey HSD Test. All p-values are two-tailed and considered significant at the 0.05 level. […] Correlation coefficients (r) were based on a sample size of twelve for human microsomes. All p-values are two-tailed and considered significant at the 0.05 level.
To clarify these correlations, multivariate analysis was used to investigate the dependence of metabolite formation on these CYP activities. Activities of CYP2A6, -2B6 and -2C8 in each microsomal sample were combined in pairs with the activities of CYP3A4 to see if any combination of the activities led to an improvement in the correlation with CYP3A4.

monohydroxy cabozantinib [M1]
Contribution of CYPs other than CYP3A4 to formation of the metabolite in human liver (CYPs in human liver): less than 3% | K0.5 (CYP3A4 + cyt b5): 26.00 ± 2.92 µM | VMax (CYP3A4 + cyt b5): 3.60 ± 0.11 peak area/min/nmol CYP | K0.5 (CYP3A4): 8.98 ± 1.04 µM | VMax (CYP3A4): 1.50 ± 0.05 peak area/min/nmol CYP | Ki (CYP3A4; substrate inhibition): 947.87 ± 202.96 µM | Amounts of cabozantinib metabolites (human liver microsomes [1]; human liver microsomes sample HG03): 0.287 peak area/incubation time | Amounts of cabozantinib metabolites (human liver microsomes [1]; human liver microsomes sample HG24): 0.132 peak area/incubation time | Amounts of cabozantinib metabolites (human liver microsomes [1]; human liver microsomes sample HG32): 0.208 peak area/incubation time | Amounts of cabozantinib metabolites (human liver microsomes [1]; human liver microsomes sample HG42): 0.301 peak area/incubation time | Amounts of cabozantinib metabolites (human liver microsomes [1]; human liver microsomes sample HG43): 0.755 peak area/incubation time | Amounts of cabozantinib metabolites (human liver microsomes [1]; human liver microsomes sample HG74): 0.148 peak area/incubation time | Amounts of cabozantinib metabolites (human liver microsomes [1]; human liver microsomes sample HG93): 0.292 peak area/incubation time | Amounts of cabozantinib metabolites (human liver microsomes [1]; human liver microsomes sample HG103): 0.109 peak area/incubation time | Amounts of cabozantinib metabolites (human liver microsomes [1]; human liver microsomes sample HK31): 0.218 peak area/incubation time | Amounts of cabozantinib metabolites (human liver microsomes [1]; human liver microsomes sample HK34): 0.209 peak area/incubation time | Amounts of cabozantinib metabolites (human liver microsomes [2]; human liver microsomes sample HK23): 0.094 peak area/incubation time | Amounts of cabozantinib metabolites (human liver microsomes [2]; human liver microsomes sample HK27): 0.273 peak area/incubation time | Correlation coefficient (r) with CYP2C19 activity (human liver microsomes [3]; (S)-Mephenytoin-4′-hydroxylase): −0.119 | Correlation coefficient (r) with CYP2B6 activity (human liver microsomes [3]; (S)-Mephenytoin-N-demethylase): 0.886 *** | Correlation coefficient (r) with CYP2D6 activity (human liver microsomes [3]; Buferalol-1′-hydroxylase): 0.028 | Correlation coefficient (r) with CYP2E1 activity (human liver microsomes [3]; Chlorzoxazone-6-hydroxylase): −0.065 | Correlation coefficient (r) with CYP2A6 activity (human liver microsomes [3]; Coumarine-7-hydroxylase): 0.607 * | Correlation coefficient (r) with CYP2C9 activity (human liver microsomes [3]; Diclofenac-4′-hydroxylase): 0.142 | Correlation coefficient (r) with CYP4A11 activity (human liver microsomes [3]; Lauric acid-12-hydroxylase): 0.163 | Correlation coefficient (r) with FMO activity (human liver microsomes [3]; Methyl-p-tolyl sulfide oxidase): 0.137 | Correlation coefficient (r) with CYP2C8 activity (human liver microsomes [3]; Paclitaxel-6α-hydroxylase): 0.785 ** | Correlation coefficient (r) with CYP1A2 activity (human liver microsomes [3]; Phenacetin-O-deethylase): 0.104 | Correlation coefficient (r) with Total CYPs (human liver microsomes [3]; amount of metabolite formed vs total CYP content): 0.705 *
